## scFv variants of Ab-14 (light chain) against a SARS-CoV-2 spike peptide

Data: MIT Lincoln Laboratory AlphaSeq set, Li et al. 2023, doi:10.1038/s41467-023-39022-2, as distributed in FLAb.

Antigen: PDVDLGDISGINAS, a 14-residue peptide of the SARS-CoV-2 spike HR2 region.

Each scFv is VH, a (GGGGS)3 linker, VL, as in the parent Ab-14, and differs from it in the CDRs of the light chain only.
VH: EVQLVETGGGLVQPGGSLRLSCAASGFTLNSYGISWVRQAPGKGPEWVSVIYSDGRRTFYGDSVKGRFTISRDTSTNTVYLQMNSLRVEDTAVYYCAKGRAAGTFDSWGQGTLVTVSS
VL: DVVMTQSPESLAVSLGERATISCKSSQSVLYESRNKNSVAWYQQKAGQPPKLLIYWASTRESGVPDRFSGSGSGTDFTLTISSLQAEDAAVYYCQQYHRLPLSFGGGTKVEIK

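The variants were designed computationally from a first round of random CDR variants and then made and measured. Several design methods are mixed in this list. The scFvs were displayed on barcoded MATa yeast, the peptide on MATalpha yeast. Pairs that bind mate more often; barcode pairs of the diploids are counted by sequencing. The ratio of observed to expected reads was calibrated, replicate by replicate, on BCL2-family standards whose Kd was known from biolayer interferometry. The assay was run in six technical replicates.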

Variants are written as CDR1, CDR2 and CDR3 of the light chain (limits as in the source). Parent: KSSQSVLYESRNKNSVA, WASTRES, QQYHRLPLS.
This list holds designs with more than six substitutions.
Values are log10 of the apparent Kd in nM; lower means stronger binding.
Replicates are averaged; those with no signal do not enter the mean.
"nd" marks a missing value. The strain was present, yet no cells mated with the target were sequenced in that replicate, which points to weak or no binding.
Three control strains display no target. For all light chain designs, 4% of the pairings with them gave a signal, with a median of 2.64 and one signal in twenty below 1.59, so weak values seen in few replicates may be background.
The parent sequence was in this pool as ten entries: three were never detected, three once, and four in most replicates, with averages from 0.34 to 2.37.
The range of this assay differs from that of the first round, and the authors advise against merging the two.
The authors averaged sequences with at least three values out of six and counted those with two or fewer as poor binders.

For IVSQLMLWGMHRKNSIA | EAQTRIN | QQYDRLPLM, the assay gave nd, 2.35, 2.04, 3.22, 2.95, 2.98 (mean 2.71). For TIGQSTHETSRNKNSVA | HASTRED | QQYDRLPLS, the assay gave 0.21, 0.05, 0.11, 0.11, 0.19, 0.14 (mean 0.13). With KSSNSVLYESQNKNSVA | TASTHEM | QQYAHLPLS the result was nd, 1.81, nd, 2.97, nd, 1.92 (mean 2.23). With KLSQSVNMTGKNKNSVA | ELTFREK | QQYERLPLS the result was 1.10, 0.91, 0.50, 1.95, 2.66, 1.38 (mean 1.42). With KLSGATRMESRNKASVA | ENSTRES | QQYFRLPLS the result was 0.62, 1.37, 0.43, 0.57, 1.54, 0.74 (mean 0.88).

For KIDQSELEESRNKNSVA | SATVREY | QQYHRLPLS, the assay gave -0.12, -0.08, -0.33, -0.35, -0.31, -0.13 (mean -0.22). The variant HMSQVTMYGSWNKNSVA | QTSTREE | QQYDRLPLS gave nd, nd, nd, nd, nd, nd. The variant KLYQNVGTMSHAKQSIA | DMERRED | QQYHRLPLS gave 0.43, 0.30, 0.48, -0.03, 0.42, 0.38 (mean 0.33). The variant KLSSHEQHGTAQNSAMA | NATVSTQ | QQYSRLPLS showed -0.45, -0.25, -0.17, -0.23, -0.35, 0.00 (mean -0.24). For TLTQSVGMESHNKDSVA | DLSTRGS | QQYHRLPLS, the assay gave 0.48, 0.31, 0.35, 0.16, 0.28, 0.72 (mean 0.38).

With MISQLYNMGQFAINSVA | QASIRND | QQYDRLPLV the result was 0.78, 0.35, 0.49, 0.71, 0.33, 0.84 (mean 0.58). For KIGGVTNGISRLKNSVA | EQSTRED | QQYNRLPLS, the assay gave 0.49, 0.13, 0.10, 0.24, 0.07, 0.36 (mean 0.23). The variant MIYGMDRELGRAANSIA | DNVTRYN | QQYERLPLS showed 1.97, 2.13, nd, 1.55, 2.04, 2.02 (mean 1.94). The variant NLSWKQSGFENEWMAVA | NTSERNA | QQYARLPLS showed 0.92, 0.63, 0.42, 0.16, 0.51, 0.49 (mean 0.52). The variant VFQEMVQGVEQDYNNIA | ENSYASR | QQYFRLPLA gave nd, nd, nd, nd, nd, nd.

The variant KLSWTCTTDLNQMHSVA | ESEVAVD | QQYAHLPLT showed 1.36, 1.94, nd, 1.12, 1.61, 1.34 (mean 1.47). For TISGIMNNAASKHNSVA | NVTMRPN | QQYHRLPLS, the assay gave 1.32, 1.45, 1.20, 1.01, 0.98, 1.21 (mean 1.19). For TISTSALYESVNKNSVA | ELTTRGS | QQYERLPLS, the assay gave 1.68, 1.51, 1.76, 1.19, 0.98, 0.98 (mean 1.35). The variant NFSQMVLTGWTLKNSVA | HASTREE | QQYHRLPLI showed 1.10, 0.81, 1.01, 1.11, 0.75, 0.92 (mean 0.95). For KIGMTLNMMMHKKNNVA | DLVTRED | QQYHRLPLS, the assay gave 1.57, 0.02, 1.52, 1.21, 1.02, 1.03 (mean 1.06).

For SLHDMNMMGLANNANVA | NASQLFS | QHYFRLPLQ, the assay gave 1.07, 2.03, 2.02, 1.08, 1.96, 1.55 (mean 1.62). With NISIEDYPENNFANNVA | NTDCRCE | QQYFMLPLM the result was 1.04, 1.09, 0.80, 0.98, 0.90, 1.54 (mean 1.06). The variant MLSQMWAIGMKVSNSVA | QANMRFN | QQYDRLPLI showed nd, nd, 3.11, 1.70, 1.83, 1.88 (mean 2.13). The variant MMSQVTGQGTRHRNNVA | QTSTREP | QQYDRLPLI gave 1.31, 0.55, 1.27, 0.74, 1.06, 1.02 (mean 0.99). The variant SLAYTQHFGQTGGKAIA | EVATRCQ | QQYFRLPLG showed 0.74, 0.80, 0.93, 0.47, 0.39, 0.29 (mean 0.60).

The variant HISTSMRYESSLKKAIA | NAQTRES | QQYHRLPLS showed 0.64, 0.23, 0.32, 0.94, 0.92, 0.96 (mean 0.67). With KFSQQNLYESRMKNPVA | NASQREQ | QQYHRLPLS the result was 0.89, 0.81, 0.69, 0.80, 1.00, 1.27 (mean 0.91). For KLGASMYVGTEAKRAIA | QDEMRVH | QQYDRLPLM, the assay gave nd, 2.34, nd, nd, 1.84, 2.05 (mean 2.08). With KIGQMTTYHSQVGNSIA | QTSTREE | QQYHRLPLS the result was 2.38, 2.00, 1.68, 2.09, 1.52, 3.32 (mean 2.17). For MSYGGDMMESVTRNSVA | NAETRED | QDYHRLPLS, the assay gave -0.16, 0.25, 2.59, 0.86, nd, 1.49 (mean 1.01).

The variant KVMQSEWYESRWKNSVA | NASQRES | QQYHRLPLS showed 0.61, 0.43, 0.07, 0.43, 0.38, 0.48 (mean 0.40). The variant MLSEVLHMLGVKKNSIA | DLVLRAN | QQYHRLPLS showed nd, nd, nd, nd, nd, 1.17. The variant SISGFMKSLSAHINSVA | DMTNRED | QQYDRLPLS gave 0.76, 0.73, 0.52, 0.70, 0.81, 0.91 (mean 0.74). For KLSMSMLMESFHKNSVA | ENNTREE | QHYHRLPLS, the assay gave nd, nd, nd, nd, nd, nd. For RIEDHHAEGEMRHSSIA | EESYRMD | QHYSRLPLA, the assay gave nd, nd, nd, 1.49, nd, nd.

The variant KLKIEVYDNQQLRNSIA | ENELRAM | QQYLSLPLS showed 0.98, 1.26, 0.81, 0.36, 0.44, 1.12 (mean 0.83). For VLSATIENQYDEADNIA | DATETSK | QQYARLPLS, the assay gave 1.82, 1.15, 4.94, 1.50, 1.65, 1.73 (mean 2.13). For KLSVSTLFESIEKNSVA | ERSTRES | QDYNRLPLS, the assay gave 1.19, 2.28, 1.50, 2.48, 1.80, nd (mean 1.85). The variant VLSDTIGNQYDEADNIA | DKTETSE | QQYARLPLS gave 0.40, 1.02, 1.15, 1.01, 0.95, 0.98 (mean 0.92). With RISITSDYYMENRSSIA | EMTVKEM | QQYQKLPLA the result was nd, 1.75, 2.01, nd, nd, 1.95 (mean 1.90).

The opening 3 entries, copied out:

With IVSQLMLWGMHRKNSIA | EAQTRIN | QQYDRLPLM the result was nd, 2.35, 2.04, 3.22, 2.95, 2.98 (mean 2.71).
With TIGQSTHETSRNKNSVA | HASTRED | QQYDRLPLS the result was 0.21, 0.05, 0.11, 0.11, 0.19, 0.14 (mean 0.13).
With KSSNSVLYESQNKNSVA | TASTHEM | QQYAHLPLS the result was nd, 1.81, nd, 2.97, nd, 1.92 (mean 2.23).